This note sets out measurements from patent publication US20050014788A1, “Piperidine derivatives and their use as modulators of chemokine receptor activity (especially ccr5)” (priority 2001, published 2005).

Sequences of proteins named here, by UniProt entry; tags and fusion partners are left off.
UniProt P51681, whole entry: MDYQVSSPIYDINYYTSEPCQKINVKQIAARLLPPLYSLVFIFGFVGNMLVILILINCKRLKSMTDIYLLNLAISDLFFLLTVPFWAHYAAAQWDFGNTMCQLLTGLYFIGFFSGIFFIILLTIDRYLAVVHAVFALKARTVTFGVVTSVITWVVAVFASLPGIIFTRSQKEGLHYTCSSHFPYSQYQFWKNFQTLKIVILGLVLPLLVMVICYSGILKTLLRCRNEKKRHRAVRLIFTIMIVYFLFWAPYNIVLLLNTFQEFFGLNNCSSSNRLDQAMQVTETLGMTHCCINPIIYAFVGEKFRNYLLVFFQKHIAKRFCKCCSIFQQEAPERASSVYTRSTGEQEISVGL

The target in the assay is recombinant human CCR5 receptor (Homo sapiens, UniProt P51681). As to the kind of experiment: MIP-1α radioligand binding assay (scintillation proximity), CHO cell membranes. Conditions: Pic50, negative log (base 10) of IC50 (M); displacement of 0.1 nM iodinated MIP-1α; CHO membranes with recombinant human CCR5; average if tested more than once. For orientation: Scintillation proximity formats need no separation of bound from free tracer.

As to `CCN(C(=O)Cc1ccc(S(C)(=O)=O)cc1)C1CCN(CC[C@@H](c2ccc(F)cc2)c2ccc(S(C)(=O)=O)cc2)CC1` [Compound No. 52], the IC50 was 4.57e-08 M.

As usually defined, the IC50 is the concentration that gives 50% inhibition.
